Assay results reported in patent US20100286145A1, “ISOPHTHALAMIDE DERIVATIVES INHIBITING BETA-SECRETASE ACTIVITY” (CoMentis, Inc., priority 2007, published 2010).

Amino acid sequences for entries named in this document (tags omitted). Residues count along the entry.
UniProt P56817, 46-501 limits assumed: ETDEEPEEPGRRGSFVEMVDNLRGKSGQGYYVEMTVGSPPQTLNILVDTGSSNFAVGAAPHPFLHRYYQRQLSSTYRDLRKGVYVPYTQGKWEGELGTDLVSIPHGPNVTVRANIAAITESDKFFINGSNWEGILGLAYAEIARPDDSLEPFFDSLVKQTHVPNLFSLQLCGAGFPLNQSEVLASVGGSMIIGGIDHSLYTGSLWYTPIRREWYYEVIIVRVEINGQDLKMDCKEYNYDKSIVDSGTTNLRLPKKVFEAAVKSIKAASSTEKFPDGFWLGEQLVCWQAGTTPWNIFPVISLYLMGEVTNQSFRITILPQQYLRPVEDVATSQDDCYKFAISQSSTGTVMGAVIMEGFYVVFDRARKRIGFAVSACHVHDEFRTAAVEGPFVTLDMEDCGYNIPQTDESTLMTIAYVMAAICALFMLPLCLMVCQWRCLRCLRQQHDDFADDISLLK

Key:
[1] = system: Aβ production in Chinese hamster ovary cells that over-express human APP695 with the London and Swedish mutations; assay: Cellular Aβ IC50 determination (Aβ40 sandwich ELISA)
memapsin 2 = memapsin 2 (Homo sapiens, UniProt P56817); assay: Inhibition of memapsin 2 beta-secretase activity (fluorogenic substrate FS-2); conditions: read-out: M2Ki; memapsin 2, pH 4, 37° C., 20 minutes pre-incubation
Procedure: Potency of compounds were determined by measurement of their inhibition of memapsin 2 activity toward a fluorescent substrate. Kinetic inhibition experiments were performed using the procedure as described in Ermolieff, et al. (Biochemistry 39:12450-12456 (2000), the teachings of which are incorporated hereby in their entirety). Briefly, assays were performed at pH 4, 37° C., by pre-incubation of memapsin 2 enzyme with compound for 20 minutes. Activity measurements were initiated by addition of a fluorogenic substrate FS-2 (Bachem Americas, Torrance, Calif.) MCA-SEVNLDAEFR-DNP (SEQ ID NO.: 2). The substrate was derived from 10 amino acids of the human amyloid precursor protein (APP), with the Swedish variant amino acids at the beta-secretase cleavage site. The terminal amino acid was modified from arginine to lysine to facilitate derivatization with a functional group for detection by autofluorescence. The amino acid sequence of the “core” peptide of the substrate is SEVNLDAEFK (SEQ ID NO.: 3). The amino terminus was derivatized with (7-methoxycoumarin-4-yl)acetyl (MCA), and the epsilon amine of the lysine side chain of the terminal residue (K in sequence SEVNLDAEFK (SEQ ID NO.: 3)) was derivatized with 2,4-dinitorphenyl (DNP).
Fluorescent signal increase over time was measured as a rate of hydrolysis of the peptide substrate. […]

IC50 [1]: 1000 to 5000 nM
Ki (memapsin 2): > 501 nM
Compound: COc1cccc(CN(C)C[C@@H](O)[C@H](Cc2ccccc2)NC(=O)c2cccc(C(=O)N(C)Cc3nc(C)cs3)c2)c1 [Compound 1, N^1-((2S,3R)-3-hydroxy-4-((3-methoxybenzyl)(methyl)amino)-1-phenylbutan-2-yl)-N^3-methyl-N^3-((4-methylthiazol-2-yl)methyl)isophthalamide]
